Structures are written as SMILES.

For this test, the system named is satellite cells. The test can be described thus: Satellite cell proliferation screen and dose response, image-based cell count. The note with it: retest; DMSO-treated cells 1±0.3 in both trials. The arrangement: species or system mouse.

In the case of `CCN(CC)CCNC(=O)c1c(C)[nH]c(/C=C2\C(=O)Nc3ccc(F)cc32)c1C` [Sunitinib], the “proliferation of the input SMP cells (level)” value is listed as roughly 4.7±1.4.

(Values after patent publication US11963964B2, “Small molecules for mouse satellite cell proliferation” (President and Fellows of Harvard College, priority 2011, dated 2024).)
